Results: PubChem BioAssay (NCI)
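Grown in 96-well plates, cells were treated for 48 hours with each compound at five concentrations. Insufficient inhibition: endpoint recorded as highest concentration tested. GI50 marks 50% less growth. TGI marks complete inhibition of growth.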

Assays:
Assay in all cases: growth of human tumour cells (NCI), 48 h
[1] = tested on: KM12 colon
[2] = tested on: HS 578T breast
[3] = tested on: UACC-62 melanoma
[4] = tested on: IGROV1 ovarian
[5] = tested on: HT29 colon
[6] = tested on: PC-3 prostate
[7] = tested on: SK-MEL-5 melanoma
[8] = tested on: NCI-H23 lung
[9] = tested on: ACHN renal
[10] = tested on: TK-10 renal
[11] = tested on: UO-31 renal
[12] = tested on: NCI-H322M lung
[13] = tested on: UACC-257 melanoma
[14] = tested on: HCT-116 colon
[15] = tested on: SR leukemia
[16] = tested on: RXF 393 renal
[17] = tested on: EKVX NSCLC
[18] = tested on: NCI-H522 lung
[19] = tested on: BT-549 breast
[20] = tested on: MALME-3M melanoma
[21] = tested on: OVCAR-8 ovarian
[22] = tested on: MOLT-4 leukemia
[23] = tested on: T-47D breast
[24] = tested on: U251 CNS
[25] = tested on: MDA-MB-231 breast
[26] = tested on: SF-268 CNS
[27] = tested on: OVCAR-4 ovarian
[28] = tested on: HCT-15 colon
[29] = tested on: DU-145 prostate
[30] = tested on: SN12C renal
[31] = tested on: NCI-H460 lung
[32] = tested on: MDA-N
[33] = tested on: SK-OV-3 ovarian
[34] = tested on: K-562 leukemia
[35] = tested on: SK-MEL-2 melanoma
[36] = tested on: HL-60(TB) leukemia
[37] = tested on: CCRF-CEM leukemia
[38] = tested on: M14 melanoma
[39] = tested on: NCI/ADR-RES ovarian
[40] = tested on: CAKI-1 renal
[41] = tested on: OVCAR-3 ovarian
[42] = tested on: SF-295 CNS
[43] = tested on: HOP-62 NSCLC
[44] = tested on: SF-539 CNS
[45] = tested on: MDA-MB-435
[46] = tested on: MCF7 breast
[47] = tested on: SW-620 colon
[48] = tested on: HOP-92 NSCLC
[49] = tested on: 786-0 renal
[50] = tested on: A498 renal
[51] = tested on: LOX IMVI melanoma
[52] = tested on: OVCAR-5 ovarian
[53] = tested on: RPMI-8226 leukemia
[54] = tested on: COLO 205 colon
[55] = tested on: SNB-19 CNS
[56] = tested on: SNB-75 CNS
[57] = tested on: A549 NSCLC
[58] = tested on: SK-MEL-28 melanoma

## COc1cccc(C[N+](C)(CCCl)CCCl)c1[N+](=O)[O-]
[1]
  GI50: > 100 µM
  TGI: > 100 µM
[2]
  GI50: > 100 µM
  TGI: > 100 µM
[3]
  GI50: > 100 µM
  TGI: > 100 µM
[4]
  GI50: > 100 µM
  TGI: > 100 µM
[5]
  GI50: > 100 µM
  TGI: > 100 µM
[6]
  GI50: > 100 µM
  TGI: > 100 µM
[7]
  GI50: > 100 µM
  TGI: > 100 µM
[8]
  GI50: > 100 µM
  TGI: > 100 µM
[9]
  GI50: 40.1 µM
  TGI: > 100 µM
[10]
  GI50: > 100 µM
  TGI: > 100 µM
[11]
  GI50: > 100 µM
  TGI: > 100 µM
[12]
  GI50: > 100 µM
  TGI: > 100 µM
[13]
  GI50: > 100 µM
  TGI: > 100 µM
[14]
  GI50: > 100 µM
  TGI: > 100 µM
[15]
  GI50: 13.6 µM
  TGI: > 100 µM
[16]
  GI50: 64.6 µM
  TGI: > 100 µM
[17]
  GI50: > 100 µM
  TGI: > 100 µM
[18]
  GI50: > 100 µM
  TGI: > 100 µM
[19]
  GI50: > 100 µM
  TGI: > 100 µM
[20]
  GI50: > 100 µM
  TGI: > 100 µM
[21]
  GI50: > 100 µM
  TGI: > 100 µM
[22]
  GI50: 85.1 µM
  TGI: > 100 µM
[23]
  GI50: 25.2 µM
  TGI: > 100 µM
[24]
  GI50: > 100 µM
  TGI: > 100 µM
[25]
  GI50: > 100 µM
  TGI: > 100 µM
[26]
  GI50: > 100 µM
  TGI: > 100 µM
[27]
  GI50: > 100 µM
  TGI: > 100 µM
[28]
  GI50: > 100 µM
  TGI: > 100 µM
[29]
  GI50: > 100 µM
  TGI: > 100 µM
[30]
  GI50: > 100 µM
  TGI: > 100 µM
[31]
  GI50: 80.5 µM
  TGI: > 100 µM
[32]
  GI50: > 100 µM
  TGI: > 100 µM
[33]
  GI50: > 100 µM
  TGI: > 100 µM
[34]
  GI50: > 100 µM
  TGI: > 100 µM
[35]
  GI50: > 100 µM
  TGI: > 100 µM
[36]
  GI50: > 100 µM
  TGI: > 100 µM
[37]
  GI50: > 100 µM
  TGI: > 100 µM
[38]
  GI50: > 100 µM
  TGI: > 100 µM
[39]
  GI50: > 100 µM
  TGI: > 100 µM
[40]
  GI50: 33.9 µM
  TGI: > 100 µM
[41]
  GI50: > 100 µM
  TGI: > 100 µM
[42]
  GI50: > 100 µM
  TGI: > 100 µM
[43]
  GI50: > 100 µM
  TGI: > 100 µM
[44]
  GI50: > 100 µM
  TGI: > 100 µM
[45]
  GI50: > 100 µM
  TGI: > 100 µM
[46]
  GI50: > 100 µM
  TGI: > 100 µM
[47]
  GI50: > 100 µM
  TGI: > 100 µM
[48]
  GI50: > 100 µM
  TGI: > 100 µM
[49]
  GI50: > 100 µM
  TGI: > 100 µM
[50]
  GI50: > 100 µM
  TGI: > 100 µM
[51]
  GI50: > 100 µM
  TGI: > 100 µM
[52]
  GI50: > 100 µM
  TGI: > 100 µM
[53]
  GI50: > 100 µM
  TGI: > 100 µM
[54]
  GI50: 72.4 µM
  TGI: > 100 µM
[55]
  GI50: > 100 µM
  TGI: > 100 µM
[56]
  GI50: 45.6 µM
  TGI: > 100 µM
[57]
  GI50: > 100 µM
  TGI: > 100 µM
[58]
  GI50: > 100 µM
  TGI: > 100 µM
